Patent publication US7875638B2, “Synthesis of epothilones, intermediates thereto, analogues and uses thereof” (Sloan-Kettering Institute for Cancer Research, priority 2002, dated 2011)
Where “and” joins values, the source holds several entries; their conditions need not be identical. Identical values can stand only once.

Tested on: human mammary carcinoma MX-1 xenograft
Test: MX-1 xenograft in nude mice
Details: in vivo

C/C1=C/CC(/C(C)=C/c2csc(C)n2)OC(=O)C[C@H](O)C(C)(C)C(=O)[C@H](C)[C@@H](O)[C@@H](C)CCC1 (some centres unmarked) [Compound 1, 12,13-desoxyepothilone B, reference compound]
Mouse tumors disappeared, large MX-1 tumors (0.5 g): 3 of 4
Mice relapsed on day 10 after suspension of treatment (mouse): 5/10
Tumor free after Q2Dx6 6 hr-iv. infusion (mice) (mouse): seven out of seven and 10/10
Tumor reappeared on day 10 after administration (mice) (mouse): 5/10
Tumor reappeared on the 8th day after stopping treatment (mice) (mouse): 2 out of five
